Measurements: PubChem BioAssay (NCATS)
The entries are a selection whose mix differs from that of the whole data set. Results filed as inconclusive are left out. Active and inactive are the calls of the source. Unless noted, the call rests on the fitted dose curve; in most records, active means well fitted curve in the direction sought with a large enough effect; inconclusive means small, poorly fitted or top-dose-only effect, or another doubt; inactive means no such curve, though single readings can be large; an effect the other way counts as inactive or inconclusive.

Sequences of proteins named here, by UniProt entry; tags and fusion partners are left off.
UniProt P08684, whole entry, looked up: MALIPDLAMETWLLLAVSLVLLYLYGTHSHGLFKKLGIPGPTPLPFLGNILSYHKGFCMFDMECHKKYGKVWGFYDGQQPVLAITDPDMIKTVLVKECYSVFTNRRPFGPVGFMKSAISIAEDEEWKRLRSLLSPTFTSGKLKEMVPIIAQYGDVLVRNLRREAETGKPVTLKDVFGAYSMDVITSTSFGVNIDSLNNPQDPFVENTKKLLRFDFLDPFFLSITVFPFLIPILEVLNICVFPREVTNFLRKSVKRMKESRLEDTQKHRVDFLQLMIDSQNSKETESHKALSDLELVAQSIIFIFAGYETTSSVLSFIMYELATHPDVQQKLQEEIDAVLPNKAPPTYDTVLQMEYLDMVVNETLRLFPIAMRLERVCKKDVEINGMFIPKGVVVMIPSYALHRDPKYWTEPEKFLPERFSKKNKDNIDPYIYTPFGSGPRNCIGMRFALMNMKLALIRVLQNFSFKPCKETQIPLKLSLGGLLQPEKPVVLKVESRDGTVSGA
UniProt P11712, whole entry, looked up: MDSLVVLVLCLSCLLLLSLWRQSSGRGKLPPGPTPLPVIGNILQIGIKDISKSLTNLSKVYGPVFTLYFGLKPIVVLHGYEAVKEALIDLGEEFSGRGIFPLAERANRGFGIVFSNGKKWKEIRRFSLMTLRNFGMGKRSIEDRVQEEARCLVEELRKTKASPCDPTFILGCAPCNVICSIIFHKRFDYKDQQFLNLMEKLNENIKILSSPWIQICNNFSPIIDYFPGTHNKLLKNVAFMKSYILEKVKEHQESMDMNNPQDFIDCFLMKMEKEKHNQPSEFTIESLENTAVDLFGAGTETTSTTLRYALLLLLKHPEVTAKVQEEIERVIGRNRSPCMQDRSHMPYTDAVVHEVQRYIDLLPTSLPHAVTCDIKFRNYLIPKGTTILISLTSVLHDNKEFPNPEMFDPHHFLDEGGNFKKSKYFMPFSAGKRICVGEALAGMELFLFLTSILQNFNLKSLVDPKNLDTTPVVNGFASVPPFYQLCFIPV

Assays:
[1] = target: Cytochrome P450 3A4 (Homo sapiens) (UniProt P08684); experiment: Cytochrome P450 family 3 subfamily A member 4 (CYP3A4) small molecule antagonists: luciferase qHTS assay (AID 1645841; active means well fitted curve in the direction sought with a large enough effect in the repeat runs; an effect the other way counts as inactive or inconclusive; further: nearly all actives have a fitted effect of over 45% in size)
[2] = target: Cytochrome P450 2C9 (Homo sapiens) (UniProt P11712); experiment: Cytochrome P450 family 2 subfamily C member 9 (CYP2C9) small molecule antagonists: luciferase qHTS assay (AID 1645842; active means well fitted curve in the direction sought with a large enough effect in the repeat runs; an effect the other way counts as inactive or inconclusive; further: on the % scale 0 is the no-effect control and ±100 the full control effect; nearly all actives have a fitted effect of over 55% in size); conditions: P450-Glo CYP2C9 enzyme assay, luciferin luminescence; at 57.4 µM (top of the series) unless noted
Method in brief: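 P450-Glo CYP2C9 system: proluciferin substrate with enzyme in mix containing 0.4% BSA, 10 min at room temperature, then NADPH regeneration solution added and incubated 1 h at 37C. Detection reagent stopped reaction; luminescence read after 20 min as RLU.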

[3] = Primary qHTS for inhibitors of nuclear receptor binding SET domain protein 2 (NSD2) in an isogenic RCH-ACV NSD2 p.E1099K mutant (9B) (AID 1645876); further: on the % scale 0 is the no-effect control and ±100 the full control effect; nearly all actives have a fitted effect of over 70% in size
CRL-7250 [4] = experiment: Cytotoxic Profiling of Annotated Libraries Using Quantitative High-Throughput Screening (AID 1296008); conditions: Five cell lines viability, CellTiter-Glo ATP luminescence, 48-72 h; hits give low values; further: nearly all actives have a fitted effect of over 60% in size; on max response: on the % scale 0 is the no-effect control and ±100 the full control effect
HEK293 = experiment: as above; conditions: Five cell lines viability, CellTiter-Glo ATP luminescence, 48-72 h; max response: hits give low values
HaCat = experiment: as above; conditions: Five cell lines viability, CellTiter-Glo ATP luminescence, 48-72 h; hits give low values
KB-3-1 = experiment: as above; conditions: Five cell lines viability, CellTiter-Glo ATP luminescence, 48-72 h, hits give low values
NIH3T3 = experiment: as above; conditions: Five cell lines viability, CellTiter-Glo ATP luminescence, 48-72 h; hits give low values
CRL-7250 [5] = experiment: qHTS assay to identify novel small-molecules to repurpose for Merkel cell carcinoma treatment (AID 1296009); conditions: MCC and control cell lines, CellTiter-Glo viability, 72 h; at 44.8 µM (top of the series) unless noted; further: nearly all actives have a fitted effect of over 60% in size; on activity change, negative = cytotoxicity: on the % scale 0 is the no-effect control and ±100 the full control effect
MCC-13 = experiment: as above; conditions: MCC and control cell lines, CellTiter-Glo viability, 72 h; at 46 µM (top of the series) unless noted
MCC-26 = experiment: as above; conditions: MCC and control cell lines, CellTiter-Glo viability, 72 h; at 46 µM (top of the series) unless noted
MKL-1 = experiment: as above; conditions: MCC and control cell lines, CellTiter-Glo viability, 72 h; at 46 µM (top of the series) unless noted
MKL-2 = experiment: as above; conditions: MCC and control cell lines, CellTiter-Glo viability, 72 h; at 46 µM (top of the series) unless noted
WaGa = experiment: as above; conditions: MCC and control cell lines, CellTiter-Glo viability, 72 h; at 46 µM (top of the series) unless noted
C33A = experiment: Primary qHTS to identify gynecologic anti-cancer compounds using libraries of approved drugs and bioactive compounds (AID 1345084); conditions: Gynecologic cancer cell panel viability, ATPlite luminescence, 48 h; at 57.5 µM (top of the series) unless noted; further: on the % scale 0 is the no-effect control and ±100 the full control effect; nearly all actives have a fitted effect of over 55% in size
Method in brief: (§1)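 Measured: luminescence after ATPlite addition (15 min, RT). Exposure: 48 h, 37 C, 5% CO2.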

CAOV3 = experiment: as above; conditions: Gynecologic cancer cell panel viability, ATPlite luminescence, 48 h; at 57.5 µM (top of the series) unless noted
Method in brief: as §1

CASKI = experiment: as above; conditions: Gynecologic cancer cell panel viability, ATPlite luminescence, 48 h; at 57.5 µM (top of the series) unless noted
Method in brief: as §1

Es-2 = experiment: as above; conditions: Gynecologic cancer cell panel viability, ATPlite luminescence, 48 h; at 57.5 µM (top of the series) unless noted
Method in brief: as §1

HeLa = experiment: as above; conditions: Gynecologic cancer cell panel viability, ATPlite luminescence, 48 h; at 57.5 µM (top of the series) unless noted
Method in brief: as §1

Hek293T = experiment: as above; conditions: Gynecologic cancer cell panel viability, ATPlite luminescence, 48 h, control line for the selectivity index; at 57.5 µM (top of the series) unless noted
Method in brief: as §1

JEG-3 = experiment: as above; conditions: Gynecologic cancer cell panel viability, ATPlite luminescence, 48 h; at 57.5 µM (top of the series) unless noted
Method in brief: as §1

OV90 = experiment: as above; conditions: Gynecologic cancer cell panel viability, ATPlite luminescence, 48 h; at 57.5 µM (top of the series) unless noted
Method in brief: as §1

PA-1 = experiment: as above; conditions: Gynecologic cancer cell panel viability, ATPlite luminescence, 48 h; at 57.5 µM (top of the series) unless noted
Method in brief: as §1

SKOV3 = experiment: as above; conditions: Gynecologic cancer cell panel viability, ATPlite luminescence, 48 h; at 57.5 µM (top of the series) unless noted
Method in brief: as §1

Tov-21-G = experiment: as above; conditions: Gynecologic cancer cell panel viability, ATPlite luminescence, 48 h; at 57.5 µM (top of the series) unless noted
Method in brief: as §1

Tov112D = experiment: as above; conditions: Gynecologic cancer cell panel viability, ATPlite luminescence, 48 h; at 57.5 µM (top of the series) unless noted
Method in brief: as §1

astro = experiment: Drug repurposing screens with cells derived from glioblastoma tumor samples (AID 1345199); conditions: viability, ATP luminescence, 48 h; at 45.9 µM (top of the series) unless noted; further: on the % scale 0 is the no-effect control and ±100 the full control effect; nearly all actives have a fitted effect of over 40% in size
Method in brief: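 Primary testing used CD133+ neurospheres from four GBM patients, seven concentrations, 48 h exposure and ATP-based viability; confirmation added three slower-growing patient lines.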

CCNC(C)Cc1ccc2c(c1)OCO2 (configuration not stated)
inactive: Potency [1] | activity change, negative = inhibition [2] 7.5% [at 115 µM] | Potency [3] | outcome (CRL-7250 [4]) | max response (HEK293) -5.82% | max response (HaCat) 0.721% | max response (KB-3-1) -8.96% | max response (NIH3T3) -5.77% | outcome (CRL-7250 [5]) inactive [at 92 µM] | activity change, negative = cytotoxicity (MCC-13) -2.17% [at 92.7 µM] | activity change, negative = cytotoxicity (MCC-26) -2.52% [at 92.7 µM] | activity change, negative = cytotoxicity (MKL-1) -14.2% [at 92.7 µM] | activity change, negative = cytotoxicity (MKL-2) 8.25% [at 92.7 µM] | activity change, negative = cytotoxicity (WaGa) -6.51% [at 92.7 µM] | activity change, negative = cytotoxicity (C33A) 1.96% [at 116 µM] | activity change, negative = cytotoxicity (CAOV3) -1.81% [at 116 µM] | activity change, negative = cytotoxicity (CASKI) -1.61% [at 116 µM] | activity change, negative = cytotoxicity (Es-2) -0.134% [at 116 µM] | activity change, negative = cytotoxicity (HeLa) -6.4% [at 116 µM] | activity change, negative = cytotoxicity (Hek293T) -31.5% [at 116 µM] | activity change, negative = cytotoxicity (JEG-3) 0.262% [at 116 µM] | activity change, negative = cytotoxicity (OV90) 16.2% [at 116 µM] | activity change, negative = cytotoxicity (PA-1) -11.1% [at 116 µM] | activity change, negative = cytotoxicity (SKOV3) -14.9% [at 116 µM] | activity change, negative = cytotoxicity (Tov-21-G) -1.79% [at 116 µM] | activity change, negative = cytotoxicity (Tov112D) -0.897% [at 116 µM] | activity, negative = cell killing (astro) -10.6% [at 108 µM]
